This is an account of results in patent publication US9403810B2, “Carboxamide derivatives” (Novartis AG, priority 2014, dated 2016).

By UniProt entry, the sequences of proteins in these tests, tags left out.
UniProt Q9HCE7, whole entry: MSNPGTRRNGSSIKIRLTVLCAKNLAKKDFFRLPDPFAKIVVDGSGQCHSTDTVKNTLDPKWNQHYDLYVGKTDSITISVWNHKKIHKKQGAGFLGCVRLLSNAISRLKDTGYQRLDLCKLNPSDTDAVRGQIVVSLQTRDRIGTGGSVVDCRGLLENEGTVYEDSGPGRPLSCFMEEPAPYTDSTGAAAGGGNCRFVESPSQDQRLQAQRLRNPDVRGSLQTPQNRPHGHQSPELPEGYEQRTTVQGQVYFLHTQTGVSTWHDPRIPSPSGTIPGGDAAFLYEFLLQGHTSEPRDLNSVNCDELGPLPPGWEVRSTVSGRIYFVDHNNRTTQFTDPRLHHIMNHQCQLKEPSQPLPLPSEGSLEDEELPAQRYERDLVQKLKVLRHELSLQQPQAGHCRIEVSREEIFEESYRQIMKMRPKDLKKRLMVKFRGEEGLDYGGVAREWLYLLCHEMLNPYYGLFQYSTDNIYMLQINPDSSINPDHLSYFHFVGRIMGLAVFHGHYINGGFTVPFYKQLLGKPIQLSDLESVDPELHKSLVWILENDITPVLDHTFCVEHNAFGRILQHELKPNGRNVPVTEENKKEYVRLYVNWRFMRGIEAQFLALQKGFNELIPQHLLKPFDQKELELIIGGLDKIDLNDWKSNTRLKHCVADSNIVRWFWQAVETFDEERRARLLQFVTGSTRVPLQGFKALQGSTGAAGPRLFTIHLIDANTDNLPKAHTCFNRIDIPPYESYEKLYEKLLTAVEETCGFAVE

This assay addresses Smurf-1 (Homo sapiens (Human), UniProt Q9HCE7). Description: HECT E3 ligase autoubiquitinylation TR-FRET assay (Smurf-1). In kind it is biochemical. Particulars: 8-point dose-response curve, 3 nM to 10 uM; 45 min incubation. The text has this: To determine the HECT E3 ligase selectivity of the compounds, a panel of biochemical HECT E3 ligase autoubiquitinylation assays was employed (Smurf-1, Smurf-2, WWP1, WWP2, ITCH, Nedd4, Nedd4L and E6AP). The conjugation of ubiquitin to a protein substrate is a multistep process. In an initial ATP-requiring step, a thioester bond is formed between the carboxyl terminus of ubiquitin and an internal cystein residue of the ubiquitin-activating enzyme (E1). Activated ubiquitin is then transferred to a specific cystein residue of an ubiquitin-conjugating enzyme (E2). E2s donate ubiquitin to a HECT E3 ligase (E3) from which it is transferred to the substrate protein. HECT E3 ligases can auto-ubiquitinylate. This event is detected in the TR-FRET (Time-Resolved Fluorescence Resonance Energy Transfer) assay used in this panel. The reaction mix contains E1, E2, tagged-E3, biotin-conjugated ubiquitin, the compound and ATP in a suitable buffer and is incubated for 45 minutes to allow auto-ubiquitinylation of the E3 ligase. […] When these two fluorophores are brought together by a bimolecular interaction (in this case ubiquitinylation of the E3 ligase), a portion of the energy captured by the Cryptate during excitation is released through fluorescence emission at 620 nm, while the remaining energy is transferred to XL665. This energy is then released by XL665 as specific fluorescence at 665 nm. […]

For “N-(2-Cyclohexyl-1,5-dimethyl-3-oxo-2,3-dihydro-1H-pyrazol-4-yl)-4-methyl-5-((2S,5R)-5-methyltetrahydro-2H-pyran-2-yl)isoxazole-3-carboxamide and N-(2-Cyclohexyl-1,5-dimethyl-3-oxo-2,3-dihydro-1H-pyrazol-4-yl)-4-methyl-5-((2R,5S)-5-methyltetrahydro-2H-pyran-2-yl)isoxazole-3-carboxamide [Example 22c]”, the IC50 – broadly, the concentration that inhibits the measured activity by half – is 1.4 nM.
